## CycPeptMPDB entries from one study

Source: CycPeptMPDB (Li et al. 2023), which took these values from Furukawa et al. 2016, doi:10.1021/acs.jmedchem.6b01246.

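The data file gives no further conditions (lipid, pH, time, direction or concentration), and values from different papers need not be comparable. Other peptides of the study may be missing here. Peptides that the database sets to -10, its floor, are left out.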

PAMPA measures passive passage through an artificial lipid membrane.
Permeability is given as log10 of P in cm/s; higher (less negative) is more permeable.

For CCCC[C@@H]1NC(=O)[C@@H](CC(C)C)N(C)C(=O)CN(CC2CCOCC2)C(=O)[C@@H](C)NC(=O)CN(CCCOC(C)C)C(=O)[C@H]2CCCN2C1=O the data give PAMPA -6.66 (log10 cm/s).
For CCCC[C@@H]1NC(=O)[C@H](CC(C)C)N(C)C(=O)CN(CC2CCCCC2)C(=O)[C@H](C)NC(=O)CN(CC)C(=O)[C@H]2CCCN2C1=O the data give PAMPA -5.05 (log10 cm/s).
For CCCC[C@@H]1NC(=O)[C@@H](CC(C)C)N(C)C(=O)CN(CC2CCCCC2)C(=O)[C@@H](C)NC(=O)CN(CC)C(=O)[C@H]2CCCN2C1=O the data give PAMPA -5.57 (log10 cm/s).
For CCCC[C@@H]1NC(=O)[C@@H](CC(C)C)NC(=O)CN(CC2CCCCC2)C(=O)[C@H](C)NC(=O)CN(CCCOC(C)C)C(=O)[C@H]2CCCN2C1=O the data give PAMPA -5.02 (log10 cm/s).
For CCCCCN1CC(=O)N(C)[C@@H](CC(C)C)C(=O)N[C@@H](CCCC)C(=O)N2CCC[C@@H]2C(=O)N(CCCOC(C)C)CC(=O)N[C@@H](Cc2ccccc2)C1=O the data give PAMPA -5.47 (log10 cm/s).
For CCCCCN1CC(=O)N(C)[C@@H](CC(C)C)C(=O)N[C@@H](CCCC)C(=O)N2CCC[C@H]2C(=O)N(CCCOC(C)C)CC(=O)N[C@@H](Cc2ccccc2)C1=O the data give PAMPA -5.08 (log10 cm/s).
For CCCC[C@@H]1NC(=O)[C@H](CC(C)C)NC(=O)CN(CC2CCCCC2)C(=O)[C@H](Cc2ccccc2)NC(=O)CN(CCCOC(C)C)C(=O)[C@H]2CCCN2C1=O the data give PAMPA -5.03 (log10 cm/s).
For CCCC[C@@H]1NC(=O)[C@H](CC(C)C)NC(=O)CN(CC2CCOCC2)C(=O)[C@@H](Cc2ccccc2)NC(=O)CN(Cc2ccc3c(c2)OCO3)C(=O)[C@@H]2CCCN2C1=O the data give PAMPA -6.17 (log10 cm/s).
For CCCC[C@@H]1NC(=O)[C@H](CC(C)C)N(C)C(=O)CN(CC2CCCCC2)C(=O)[C@H](Cc2ccccc2)NC(=O)CN(CC)C(=O)[C@H]2CCCN2C1=O the data give PAMPA -5.37 (log10 cm/s).
For CCCC[C@@H]1NC(=O)[C@@H](CC(C)C)NC(=O)CN(CC2CCOCC2)C(=O)[C@@H](Cc2ccccc2)NC(=O)CN(Cc2ccc3c(c2)OCO3)C(=O)[C@H]2CCCN2C1=O the data give PAMPA -5.27 (log10 cm/s).
For CCCCCN1CC(=O)N(C)[C@H](CC(C)C)C(=O)N[C@@H](CCCC)C(=O)N2CCC[C@H]2C(=O)N(CC)CC(=O)N[C@H](Cc2ccccc2)C1=O the data give PAMPA -4.96 (log10 cm/s).
For CCCCCN1CC(=O)N[C@H](CC(C)C)C(=O)N[C@@H](CCCC)C(=O)N2CCC[C@H]2C(=O)N(CCCOC(C)C)CC(=O)N[C@H](C)C1=O the data give PAMPA -6.18 (log10 cm/s).
For CCCC[C@@H]1NC(=O)[C@@H](CC(C)C)NC(=O)CN(CC2CCOCC2)C(=O)[C@H](C)NC(=O)CN(CCCOC(C)C)C(=O)[C@@H]2CCCN2C1=O the data give PAMPA -6.81 (log10 cm/s).
For CCCC[C@@H]1NC(=O)[C@@H](CC(C)C)N(C)C(=O)CN(CC2CCOCC2)C(=O)[C@@H](Cc2ccccc2)NC(=O)CN(CCCOC(C)C)C(=O)[C@H]2CCCN2C1=O the data give PAMPA -5.26 (log10 cm/s).
For CCCCCN1CC(=O)N[C@H](CC(C)C)C(=O)N[C@@H](CCCC)C(=O)N2CCC[C@H]2C(=O)N(CC)CC(=O)N[C@@H](C)C1=O the data give PAMPA -6.25 (log10 cm/s).
For CCCC[C@@H]1NC(=O)[C@H](CC(C)C)N(C)C(=O)CN(CC2CCOCC2)C(=O)[C@H](Cc2ccccc2)NC(=O)CN(CCCOC(C)C)C(=O)[C@@H]2CCCN2C1=O the data give PAMPA -5.07 (log10 cm/s).
For CCCC[C@@H]1NC(=O)[C@H](CC(C)C)NC(=O)CN(CC2CCCCC2)C(=O)[C@@H](C)NC(=O)CN(CCCOC(C)C)C(=O)[C@H]2CCCN2C1=O the data give PAMPA -5.86 (log10 cm/s).
For CCCC[C@@H]1NC(=O)[C@H](CC(C)C)NC(=O)CN(CC2CCOCC2)C(=O)[C@H](Cc2ccccc2)NC(=O)CN(CC)C(=O)[C@H]2CCCN2C1=O the data give PAMPA -5.95 (log10 cm/s).
For CCCC[C@@H]1NC(=O)[C@@H](CC(C)C)N(C)C(=O)CN(CC2CCOCC2)C(=O)[C@H](C)NC(=O)CN(CCCOC(C)C)C(=O)[C@@H]2CCCN2C1=O the data give PAMPA -6.27 (log10 cm/s).
For CCCCCN1CC(=O)N[C@H](CC(C)C)C(=O)N[C@@H](CCCC)C(=O)N2CCC[C@@H]2C(=O)N(CC)CC(=O)N[C@H](Cc2ccccc2)C1=O the data give PAMPA -5.22 (log10 cm/s).

The first 2 entries again:

{"smiles": "CCCC[C@@H]1NC(=O)[C@@H](CC(C)C)N(C)C(=O)CN(CC2CCOCC2)C(=O)[C@@H](C)NC(=O)CN(CCCOC(C)C)C(=O)[C@H]2CCCN2C1=O", "PAMPA (log10 cm/s)": "-6.66"}
{"smiles": "CCCC[C@@H]1NC(=O)[C@H](CC(C)C)N(C)C(=O)CN(CC2CCCCC2)C(=O)[C@H](C)NC(=O)CN(CC)C(=O)[C@H]2CCCN2C1=O", "PAMPA (log10 cm/s)": "-5.05"}